This note sets out measurements from patent US11186566B2, “Modulator of cystic fibrosis transmembrane conductance regulator, pharmaceutical compositions, methods of treatment, and process for making the modulator” (Vertex Pharmaceuticals Incorporated, priority 2016, dated 2021).

Chains of the proteins cited; added tags and fusions are not shown. A line that says so, or that is headed by a name, gives the form on record, which may keep a tag or linker.
UniProt P13569, other isoform, or with tags, fused parts or gaps del F508-F508: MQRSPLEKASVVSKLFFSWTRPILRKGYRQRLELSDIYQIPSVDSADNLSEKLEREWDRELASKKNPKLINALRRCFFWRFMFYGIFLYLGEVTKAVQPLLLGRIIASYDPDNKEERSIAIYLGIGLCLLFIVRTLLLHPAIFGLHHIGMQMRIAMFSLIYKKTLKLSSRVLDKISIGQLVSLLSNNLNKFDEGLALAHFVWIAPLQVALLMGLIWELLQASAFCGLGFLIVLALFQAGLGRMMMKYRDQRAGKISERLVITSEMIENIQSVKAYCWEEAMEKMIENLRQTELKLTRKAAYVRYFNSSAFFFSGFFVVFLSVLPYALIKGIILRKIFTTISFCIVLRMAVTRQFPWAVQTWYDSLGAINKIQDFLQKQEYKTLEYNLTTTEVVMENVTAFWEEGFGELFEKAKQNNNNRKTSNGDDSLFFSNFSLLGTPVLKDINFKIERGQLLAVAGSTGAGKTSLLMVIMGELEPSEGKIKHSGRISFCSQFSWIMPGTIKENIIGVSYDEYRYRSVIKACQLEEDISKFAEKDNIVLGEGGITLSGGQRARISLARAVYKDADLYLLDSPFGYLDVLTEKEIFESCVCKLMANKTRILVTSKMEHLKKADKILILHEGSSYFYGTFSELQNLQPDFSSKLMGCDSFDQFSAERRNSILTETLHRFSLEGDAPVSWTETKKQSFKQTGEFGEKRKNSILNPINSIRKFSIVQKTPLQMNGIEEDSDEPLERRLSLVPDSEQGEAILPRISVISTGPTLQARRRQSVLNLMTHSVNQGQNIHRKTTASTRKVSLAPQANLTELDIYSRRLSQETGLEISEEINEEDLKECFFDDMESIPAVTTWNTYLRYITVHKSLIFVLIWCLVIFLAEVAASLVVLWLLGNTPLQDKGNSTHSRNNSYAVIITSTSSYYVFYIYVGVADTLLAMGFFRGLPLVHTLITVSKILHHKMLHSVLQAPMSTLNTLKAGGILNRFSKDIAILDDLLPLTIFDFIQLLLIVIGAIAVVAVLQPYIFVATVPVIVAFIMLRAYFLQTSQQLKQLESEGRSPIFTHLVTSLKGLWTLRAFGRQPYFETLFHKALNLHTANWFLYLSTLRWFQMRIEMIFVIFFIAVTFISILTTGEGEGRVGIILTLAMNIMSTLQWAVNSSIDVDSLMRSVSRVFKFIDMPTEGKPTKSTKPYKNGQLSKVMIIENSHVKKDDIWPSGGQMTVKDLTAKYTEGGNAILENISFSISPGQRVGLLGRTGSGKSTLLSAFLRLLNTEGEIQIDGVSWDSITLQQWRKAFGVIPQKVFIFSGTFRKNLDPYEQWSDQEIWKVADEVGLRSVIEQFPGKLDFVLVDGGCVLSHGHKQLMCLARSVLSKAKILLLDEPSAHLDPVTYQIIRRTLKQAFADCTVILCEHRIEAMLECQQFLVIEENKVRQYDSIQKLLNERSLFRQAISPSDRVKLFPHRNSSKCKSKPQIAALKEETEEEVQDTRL

The experiment has as its target F508del-CFTR (Homo sapiens (Human), UniProt P13569, DEL508-508). Description: Membrane potential optical (fluorescent voltage sensing dye, FLIPR III) HTS assay for F508del-CFTR modulators. The class given is cell-based. The note with it: F508del NIH 3T3 cells, assay 5A-A1; read-out: CFTRdF508 EC50. From the text:
Membrane Potential Optical Methods for Assaying Properties of F508del-CFTR Modulators
The assay utilizes fluorescent voltage sensing dyes to measure changes in membrane potential using a fluorescent plate reader (e.g., FLIPR III, Molecular Devices, Inc.) as a readout for increase in functional F508del in NIH 3T3 cells.
5A-A1. Identification of F508Del-CFTR Modulators
To identify modulators of F508del, a fluorescence based HTS assay format was developed. This HTS assay utilizes fluorescent voltage sensing dyes to measure changes in membrane potential on the FLIPR III as a measurement for increase in gating (conductance) of F508del NIH 3T3 cells.
(in mM) NaCl 160, KCl 4.5, CaCl2 2, MgCl2 1, HEPES 10, pH 7.4 with NaOH, Glucose 10.
Chloride salts in Bath Solution #1 (above) are substituted with gluconate salts.
NIH3T3 mouse fibroblasts stably expressing F508del are used for optical measurements of membrane potential. The cells are maintained at 37° C. in 5% CO2 and 90% humidity in Dulbecco's modified Eagle's medium supplemented with 2 mM glutamine, 10% fetal bovine serum, 1×NEAA, β-ME, 1×pen/strep, and 25 mM HEPES in 175 cm^2 culture flasks. For all optical assays, the cells were seeded at 12,000 cells/well in 384-well matrigel-coated plates and cultured for 18-24 hrs at 37° C. for the potentiator assay. […]

Take `C[C@@H]1CN(c2nc(-n3ccc(COC4(C)CC4)n3)ccc2C(=O)NS(=O)(=O)c2ccccc2)C(C)(C)C1` [Compound 29, N-(Benzenesulfonyl)-6-[3-[(1-methylcyclopropoxy)methyl]pyrazol-1-yl]-2-[(4S)-2,2,4-trimethylpyrrolidin-1-yl]pyridine-3-carboxamide]: the EC50 was in the range of 0.1 to 1 µM.
